Ends that are not written are not given here.

Chains of the proteins cited; added tags and fusions are not shown. Lines headed by an entry give the natural chain unless they say otherwise; changes in a name come on top.
UniProt Q9UQD0, whole entry: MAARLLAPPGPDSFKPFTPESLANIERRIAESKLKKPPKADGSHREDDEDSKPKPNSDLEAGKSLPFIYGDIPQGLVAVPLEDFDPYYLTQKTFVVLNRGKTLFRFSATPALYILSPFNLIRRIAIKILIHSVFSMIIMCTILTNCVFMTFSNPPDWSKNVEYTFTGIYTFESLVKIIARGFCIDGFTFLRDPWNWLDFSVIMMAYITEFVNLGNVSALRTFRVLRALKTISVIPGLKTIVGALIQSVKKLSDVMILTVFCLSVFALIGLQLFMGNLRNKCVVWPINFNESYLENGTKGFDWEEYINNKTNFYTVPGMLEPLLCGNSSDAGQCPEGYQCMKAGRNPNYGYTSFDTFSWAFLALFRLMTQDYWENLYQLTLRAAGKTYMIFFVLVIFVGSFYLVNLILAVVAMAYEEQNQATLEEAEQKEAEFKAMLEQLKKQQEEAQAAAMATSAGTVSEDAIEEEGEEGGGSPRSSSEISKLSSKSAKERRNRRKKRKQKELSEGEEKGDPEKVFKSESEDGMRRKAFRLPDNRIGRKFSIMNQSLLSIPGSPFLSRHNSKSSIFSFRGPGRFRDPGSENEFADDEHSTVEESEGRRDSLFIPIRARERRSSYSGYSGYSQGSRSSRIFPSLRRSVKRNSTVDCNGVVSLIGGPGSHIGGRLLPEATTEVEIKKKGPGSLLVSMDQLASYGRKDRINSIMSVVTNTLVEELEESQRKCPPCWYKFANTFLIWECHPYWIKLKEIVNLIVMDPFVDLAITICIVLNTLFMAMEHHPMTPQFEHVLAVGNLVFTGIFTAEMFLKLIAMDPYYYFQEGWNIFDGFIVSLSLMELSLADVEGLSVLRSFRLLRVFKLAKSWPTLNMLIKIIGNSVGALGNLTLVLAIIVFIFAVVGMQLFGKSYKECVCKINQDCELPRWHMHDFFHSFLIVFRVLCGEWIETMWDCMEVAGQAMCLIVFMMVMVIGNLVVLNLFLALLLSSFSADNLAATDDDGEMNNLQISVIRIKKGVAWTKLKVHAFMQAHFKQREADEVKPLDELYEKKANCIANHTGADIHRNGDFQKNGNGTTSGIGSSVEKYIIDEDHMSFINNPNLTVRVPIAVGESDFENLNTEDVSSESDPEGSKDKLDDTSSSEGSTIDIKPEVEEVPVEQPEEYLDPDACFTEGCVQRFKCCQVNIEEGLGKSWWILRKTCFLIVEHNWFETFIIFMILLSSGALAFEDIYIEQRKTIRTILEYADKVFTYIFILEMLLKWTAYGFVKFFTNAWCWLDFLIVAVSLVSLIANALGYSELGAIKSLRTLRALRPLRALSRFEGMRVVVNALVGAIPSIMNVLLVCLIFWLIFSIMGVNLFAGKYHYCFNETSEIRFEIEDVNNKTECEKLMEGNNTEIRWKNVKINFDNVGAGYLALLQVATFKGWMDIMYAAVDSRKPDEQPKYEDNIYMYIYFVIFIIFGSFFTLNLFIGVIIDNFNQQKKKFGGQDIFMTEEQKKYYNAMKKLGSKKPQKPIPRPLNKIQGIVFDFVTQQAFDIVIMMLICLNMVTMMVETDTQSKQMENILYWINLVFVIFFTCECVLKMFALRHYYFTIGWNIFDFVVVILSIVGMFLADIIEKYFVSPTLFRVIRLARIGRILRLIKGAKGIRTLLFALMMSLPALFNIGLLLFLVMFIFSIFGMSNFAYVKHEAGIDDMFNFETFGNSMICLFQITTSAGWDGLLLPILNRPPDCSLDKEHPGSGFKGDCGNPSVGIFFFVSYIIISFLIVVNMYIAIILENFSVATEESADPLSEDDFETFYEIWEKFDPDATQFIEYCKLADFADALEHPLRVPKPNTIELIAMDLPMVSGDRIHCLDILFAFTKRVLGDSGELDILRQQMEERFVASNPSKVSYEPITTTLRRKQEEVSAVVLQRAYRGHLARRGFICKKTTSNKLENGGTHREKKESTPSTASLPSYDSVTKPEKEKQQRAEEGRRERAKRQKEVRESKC
UniProt Q15858: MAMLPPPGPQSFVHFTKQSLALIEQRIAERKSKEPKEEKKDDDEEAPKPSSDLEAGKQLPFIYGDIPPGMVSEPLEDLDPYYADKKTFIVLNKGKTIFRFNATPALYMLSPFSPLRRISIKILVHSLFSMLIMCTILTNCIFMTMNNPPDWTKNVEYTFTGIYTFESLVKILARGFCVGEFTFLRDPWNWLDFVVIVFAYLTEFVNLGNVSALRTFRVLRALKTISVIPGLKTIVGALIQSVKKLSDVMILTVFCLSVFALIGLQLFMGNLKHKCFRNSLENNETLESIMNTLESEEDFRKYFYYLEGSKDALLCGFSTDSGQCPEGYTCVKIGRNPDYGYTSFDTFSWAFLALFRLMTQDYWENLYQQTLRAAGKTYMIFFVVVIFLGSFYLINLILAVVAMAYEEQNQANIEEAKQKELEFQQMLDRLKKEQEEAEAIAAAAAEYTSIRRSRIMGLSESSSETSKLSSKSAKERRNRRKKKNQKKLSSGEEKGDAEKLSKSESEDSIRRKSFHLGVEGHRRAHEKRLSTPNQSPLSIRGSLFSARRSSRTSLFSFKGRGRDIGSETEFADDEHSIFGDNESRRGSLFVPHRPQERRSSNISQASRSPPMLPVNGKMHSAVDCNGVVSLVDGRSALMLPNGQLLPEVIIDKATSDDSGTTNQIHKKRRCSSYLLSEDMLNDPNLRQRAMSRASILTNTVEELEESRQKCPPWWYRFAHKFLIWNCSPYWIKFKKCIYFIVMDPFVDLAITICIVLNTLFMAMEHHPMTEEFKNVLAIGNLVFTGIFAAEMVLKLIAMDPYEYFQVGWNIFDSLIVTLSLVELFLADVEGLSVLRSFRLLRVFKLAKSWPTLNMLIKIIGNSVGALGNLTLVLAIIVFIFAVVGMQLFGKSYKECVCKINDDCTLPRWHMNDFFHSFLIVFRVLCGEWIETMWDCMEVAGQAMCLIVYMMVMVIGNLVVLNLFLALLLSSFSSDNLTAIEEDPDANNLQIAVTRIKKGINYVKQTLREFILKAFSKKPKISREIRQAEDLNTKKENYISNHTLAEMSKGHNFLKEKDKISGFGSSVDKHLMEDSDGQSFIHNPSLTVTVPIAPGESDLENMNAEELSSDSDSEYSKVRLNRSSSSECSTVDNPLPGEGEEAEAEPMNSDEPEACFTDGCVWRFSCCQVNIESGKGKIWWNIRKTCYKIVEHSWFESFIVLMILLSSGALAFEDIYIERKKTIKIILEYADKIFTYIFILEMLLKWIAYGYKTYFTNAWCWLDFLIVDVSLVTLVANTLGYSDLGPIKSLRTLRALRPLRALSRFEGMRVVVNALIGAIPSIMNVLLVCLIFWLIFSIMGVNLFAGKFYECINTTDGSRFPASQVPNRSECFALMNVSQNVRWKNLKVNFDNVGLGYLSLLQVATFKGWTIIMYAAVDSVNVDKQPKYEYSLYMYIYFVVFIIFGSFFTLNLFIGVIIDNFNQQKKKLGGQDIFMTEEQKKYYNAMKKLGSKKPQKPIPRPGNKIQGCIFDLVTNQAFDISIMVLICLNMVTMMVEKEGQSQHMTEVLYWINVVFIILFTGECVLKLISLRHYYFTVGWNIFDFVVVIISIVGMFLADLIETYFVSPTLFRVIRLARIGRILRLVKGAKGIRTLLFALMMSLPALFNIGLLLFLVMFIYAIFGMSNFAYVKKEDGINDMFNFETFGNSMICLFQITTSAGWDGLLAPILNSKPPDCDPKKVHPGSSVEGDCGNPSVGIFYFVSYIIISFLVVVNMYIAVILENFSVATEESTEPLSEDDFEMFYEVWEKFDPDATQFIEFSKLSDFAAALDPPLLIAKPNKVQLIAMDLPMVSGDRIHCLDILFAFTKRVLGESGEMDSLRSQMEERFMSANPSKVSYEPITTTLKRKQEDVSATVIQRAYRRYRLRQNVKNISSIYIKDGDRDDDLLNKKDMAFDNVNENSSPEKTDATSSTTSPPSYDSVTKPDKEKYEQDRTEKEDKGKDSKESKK

These results are taken from US20160287666A1 (priority 2015, published 2016).

The target of one experiment is human Nav1.6 (Homo sapiens, UniProt Q9UQD0). Type of experiment: cell-based.
Settings: not given
As for “GPSCQKWMQTCDAERKCCEGFVCRLWCKKKLW-OH (cysteine pairing not given here) [NV1D2773]”, the “selectivity towards Nav1.7 compared to recombinant Protoxin-II” value is on record as “improved selectivity”.

A further experiment has as its target human Nav1.7 (Homo sapiens, UniProt Q15858, W1161R). The class given is cell-based. The conditions noted are these: read-out: Nav1.7 IC50.
On to “Ac-QCQKWMQTCDAERKCCEGFSCTLWCKKKLW-NH2 [(-GP) N-Ac-NV1D2974-NH2]”, for which the IC50 (usually the midpoint of a concentration-inhibition curve) stood at 6.43 nM.

“Ac-QCQKWMQTCDRERKCCEGFVCTLWCRKKLW-NH2 [(-GP) N-Ac-NV1D3034-NH2]”: the half-inhibitory concentration (IC50) stood at 7.63 nM.

Turning to “GPQCQKWMQTCDAERKCCEGFVCRLWCKKKLW-NH2 [NV1D2775-NH2]”, the 50% inhibitory concentration (IC50) is 5.06 nM.

Consider “GPQCQKWMQTCDRERKCCEGFVCTLWCRKKLW-NH2 [NV1D3034-NH2]”, for which the concentration for half-maximal inhibition (IC50) was found to be 12.2 nM.

For the substance “GPQCQKWMQTCDRERKCCEGFVCTLWCRKKLW-NH-butyl [NV1D3034-NH-butyl]”, the IC50 worked out at 16.6 nM.

For the substance “GPQCQKWMQTCDRERKCCEGFVCTLWCRKKLW-NH-methyl [NV1D3034-NH-methyl]”, the IC50 worked out at 7.1 nM.

On to “GPQCQKWMQTCDRTRKCCEGFVCTLWCRKKLW-NH2 [NV1D3368-NH2]”, for which the IC50 came to 20.5 nM.

On to “GPSCQKWFWTCDAERKCCEGLVCRLWCKKKLW-NH2 [NV1D2890-NH2]”, for which the IC50 was 9.12 nM.

As for “GPYCQKWMQTCDANRKCCEGFSCRLWCKKKLW-NH2 [NV1D3586-NH2]”, the IC50 came out at 4.23 nM.
